The results in this text go back to ChEMBL document CHEMBL5042528, “Optimization of 2-Amino-4,6-diarylpyrimidine-5-carbonitriles as Potent and Selective A1 Antagonists” (J Med Chem, 2022).

The structures appear in SMILES notation.

In assay [1] the target is T1, Adenosine receptor A2b (Homo sapiens) (UniProt P29275).
T1 sequence (whole entry): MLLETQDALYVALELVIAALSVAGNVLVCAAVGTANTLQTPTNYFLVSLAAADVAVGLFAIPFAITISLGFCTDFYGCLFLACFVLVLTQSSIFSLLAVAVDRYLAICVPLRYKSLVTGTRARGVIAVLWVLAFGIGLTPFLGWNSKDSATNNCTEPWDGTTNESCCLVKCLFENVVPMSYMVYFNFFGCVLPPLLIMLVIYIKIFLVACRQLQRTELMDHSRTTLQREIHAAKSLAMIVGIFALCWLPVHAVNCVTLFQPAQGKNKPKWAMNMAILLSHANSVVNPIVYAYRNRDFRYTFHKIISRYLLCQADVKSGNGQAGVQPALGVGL
Description: Antagonist activity at A2B adenosine receptor (unknown origin). The class given is functional. On the set-up: scale not given: the % may be the effect or the level left.

Assay [2] addresses Adenosine receptor A2a (Homo sapiens, UniProt P29274). Description: Displacement of [3H]SCH-58261 from A2A adenosine receptor (unknown origin) expressed in HEK cell membrane at 1 uM incubated for 60 mins at room temperature by NXT microplate scintillation counter analysis relative to control. The class given is cell membranes. On the technique in general: Displacement assays read how much labelled ligand stays bound in the presence of the test substance.

Take `Nc1nc(-c2ccccc2)cc(-c2ccc3c(c2)OCO3)n1`: the Activity came to 7% in assay [1] and 1% in assay [2].
